In patent US9821070B2 (OPKO Biologics Ltd., priority 2012, dated 2017):

Test: Plasma concentrations and pharmacokinetics of MOD-6031 and its hydrolyzed products by LC-MS/MS
Format: in vivo, ob/ob mice
Conditions: for Plasma concentration 24 hours following single dose (Day 2) / Plasma concentration 24 hours following last injection of repeat dosing (Day 33): b334 gives μg/ml

Oxyntomodulin [OXM]
Plasma concentration 24 hours following single dose (Day 2) (MOD-6031 1000 nmol/kg (PEG-FMS dose incl. impurities 1515)): 0.07 | Plasma concentration 24 hours following last injection of repeat dosing (Day 33) (MOD-6031 1000 nmol/kg twice a week (PEG-FMS 1515)): 0.09 | Plasma concentration 24 hours following single dose (Day 2) (MOD-6031 3000 nmol/kg (PEG-FMS dose incl. impurities 4545)): 0.23 | Plasma concentration 24 hours following last injection of repeat dosing (Day 33) (MOD-6031 3000 nmol/kg twice a week (PEG-FMS 4545)): 0.23 | Plasma concentration 24 hours following single dose (Day 2) (MOD-6031 6000 nmol/kg (PEG-FMS dose incl. impurities 9090)): 0.38 | Plasma concentration 24 hours following last injection of repeat dosing (Day 33) (MOD-6031 6000 nmol/kg twice a week (PEG-FMS 9090)): 0.37 | actual concentration at 24 h post last injection (Day 33) (top dose of MOD-6031 (6000 nmol/kg) twice a week, terminal blood): 0.37 µg/mL
